The results in this text go back to US20180136227A1, “Treatment and Diagnosis of Hereditary Xerocytosis” (Universite d'aix Marseille, priority 2015, published 2018).

One test deals with V282M mutated KCNN4 (Homo sapiens, UniProt O15554, V282M). Briefly: Whole cell patch clamp on HEK293 cells transfected with V282M KCNN4. The test is classed as cell-based. As to conditions: Senicapoc, normalized K+ current at 0 mV, 1 μM free calcium. For orientation: Patch clamp records ionic current or voltage across a cell membrane.
For a further test, the target named is WT KCNN4 (Homo sapiens, UniProt O15554). Briefly: Whole cell patch clamp on HEK293 cells transfected with WT KCNN4. The test is classed as cell-based. The note with it: Senicapoc, normalized K+ current at 0 mV, 1 μM free calcium.
In test [1] the target is Gardos channels in control red blood cells (Homo sapiens, UniProt O15554). As to conditions: 10 μM TRAM-34, 5 min pre-incubation, whole-cell.
The next test deals with control red blood cells. Briefly: Osmotic fragility test in hypotonic saline, control red blood cells. The note with it: TRAM-34 10 μM.

pIC50: −log10 of the molar value.

In the case of `NC(=O)C(c1ccccc1)(c1ccc(F)cc1)c1ccc(F)cc1` [Senicapoc, bis(4-fluorophenyl)phenyl acetamide], the pIC50 on V282M mutated KCNN4 and at WT KCNN4 was about 8.00 in each case.

For `Clc1ccccc1C(c1ccccc1)(c1ccccc1)n1cccn1` [TRAM-34, 1-[(2-Chlorophenyl)diphenylmethyl]-1H-pyrazole], the “block of Gardos channel current” value in test [1] is given as “completely blocked”. Further, the “decrease of the osmotic resistance” value in the test on control red blood cells (25 hours at 4° C.) is recorded as “very slightly”; in the test with control red blood cells (25 hours at 37° C.), “more significantly”.

A word on the pIC50: it is the IC50 on a negative log10 scale, so that one unit is a factor of ten.
